Results: publication PMC9738565, “N1-Benzyl Tryptamine Pan-SHIP1/2 Inhibitors: Synthesis and Preliminary Biological Evaluation as Anti-Tumor Agents” (Molecules, 2022)

Molecular target: T1, SHIP2 (Homo sapiens, UniProt O15357)
T1 construct: purchased Echelon Biosciences
T1 sequence (O15357 1-1258): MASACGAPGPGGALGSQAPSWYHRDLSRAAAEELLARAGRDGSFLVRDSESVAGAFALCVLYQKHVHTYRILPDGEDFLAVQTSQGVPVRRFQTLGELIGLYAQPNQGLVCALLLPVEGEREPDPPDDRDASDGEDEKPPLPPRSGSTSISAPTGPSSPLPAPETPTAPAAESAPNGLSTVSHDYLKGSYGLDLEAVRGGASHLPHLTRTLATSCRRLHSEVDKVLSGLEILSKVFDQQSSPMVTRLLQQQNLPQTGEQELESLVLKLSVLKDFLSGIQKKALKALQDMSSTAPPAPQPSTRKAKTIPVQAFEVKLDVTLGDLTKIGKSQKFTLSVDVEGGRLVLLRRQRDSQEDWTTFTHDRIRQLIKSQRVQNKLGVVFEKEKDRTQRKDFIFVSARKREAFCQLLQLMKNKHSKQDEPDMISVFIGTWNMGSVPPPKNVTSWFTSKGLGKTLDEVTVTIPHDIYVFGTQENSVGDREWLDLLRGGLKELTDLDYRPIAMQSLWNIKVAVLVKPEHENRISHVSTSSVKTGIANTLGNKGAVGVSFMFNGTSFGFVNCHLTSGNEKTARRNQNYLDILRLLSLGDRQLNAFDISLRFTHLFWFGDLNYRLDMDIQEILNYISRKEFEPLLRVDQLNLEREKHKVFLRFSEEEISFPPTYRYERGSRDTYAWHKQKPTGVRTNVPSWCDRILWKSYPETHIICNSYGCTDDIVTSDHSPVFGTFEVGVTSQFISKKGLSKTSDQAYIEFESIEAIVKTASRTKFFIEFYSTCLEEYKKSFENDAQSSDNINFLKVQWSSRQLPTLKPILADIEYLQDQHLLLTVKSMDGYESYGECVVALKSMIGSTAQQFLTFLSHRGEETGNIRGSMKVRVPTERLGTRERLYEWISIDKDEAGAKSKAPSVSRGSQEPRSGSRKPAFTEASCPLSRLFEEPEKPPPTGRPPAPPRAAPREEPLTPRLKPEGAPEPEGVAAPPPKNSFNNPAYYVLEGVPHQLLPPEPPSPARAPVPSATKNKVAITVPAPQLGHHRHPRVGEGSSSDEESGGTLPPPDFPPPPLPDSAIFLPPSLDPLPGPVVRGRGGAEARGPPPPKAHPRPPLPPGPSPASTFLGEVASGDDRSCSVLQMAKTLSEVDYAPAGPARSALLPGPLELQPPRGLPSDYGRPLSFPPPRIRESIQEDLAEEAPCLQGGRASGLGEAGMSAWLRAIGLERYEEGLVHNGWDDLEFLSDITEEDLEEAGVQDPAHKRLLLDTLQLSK
Experiment: Fluorescence Polarization (FP) assay for the detection of PI(3,4)P2, SHIP2
Format: biochemical
Conditions: read-out: IC50 SHIP2 (via FP)

## CSc1ccc2c(c1)c(CCN)c(C)n2Cc1ccc(Cl)cc1.Cl [Compound 7b, 2-(1-(4-Chlorobenzyl)-2-methyl-5-(methylthio)-1H-indol-3-yl)ethanaminium chloride]
  IC50: 14 µM
